The values below are quoted from earlier work in patent US7432414B2, “Transgenic mouse having an amyloid precursor protein with a modified beta secretase cleavage site” (Merck & Co., Inc., priority 2004, dated 2008).

Sequences of proteins named here, by UniProt entry; tags and fusion partners are left off. Residues count along the entry.
UniProt P56817, 46-501: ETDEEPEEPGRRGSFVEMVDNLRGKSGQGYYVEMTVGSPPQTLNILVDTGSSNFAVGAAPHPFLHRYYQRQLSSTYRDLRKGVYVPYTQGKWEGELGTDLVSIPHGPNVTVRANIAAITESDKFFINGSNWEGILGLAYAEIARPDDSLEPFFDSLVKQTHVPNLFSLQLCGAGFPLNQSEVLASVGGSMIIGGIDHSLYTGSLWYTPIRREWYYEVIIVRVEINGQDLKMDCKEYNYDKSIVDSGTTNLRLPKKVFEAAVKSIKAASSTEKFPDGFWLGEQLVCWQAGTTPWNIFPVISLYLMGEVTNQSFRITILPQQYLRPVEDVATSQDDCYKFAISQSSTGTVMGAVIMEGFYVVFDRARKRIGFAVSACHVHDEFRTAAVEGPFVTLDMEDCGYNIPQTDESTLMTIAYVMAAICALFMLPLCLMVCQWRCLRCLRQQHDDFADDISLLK

The Ki is the equilibrium dissociation constant of an inhibitor or competing ligand from its target.

This data set deals with T1, recombinant β secretase produced in E. coli (Homo sapiens, UniProt P56817).
T1 construct: host or cells: E. coli
The conditions noted are these: Ghosh et al., 2000, J. Am. Chem. Soc. 122:3522-3523, read-out: Ki towards recombinant β secretase.

For the substance “modified peptide β secretase inhibitor, structure EVNL*AAEF (SEQ ID NO: 3), L*A = uncleavable hydroxyethylene transition-state isostere of the LA peptide bond [OM99-2]”, the Ki is 96 ± 3 nM.
